For the test, the target named is D(3) dopamine receptor (Rattus norvegicus, UniProt P19020). The test can be described thus: biochemical.

By UniProt entry, the sequences of proteins in these tests, tags left out.
UniProt P19020, whole entry: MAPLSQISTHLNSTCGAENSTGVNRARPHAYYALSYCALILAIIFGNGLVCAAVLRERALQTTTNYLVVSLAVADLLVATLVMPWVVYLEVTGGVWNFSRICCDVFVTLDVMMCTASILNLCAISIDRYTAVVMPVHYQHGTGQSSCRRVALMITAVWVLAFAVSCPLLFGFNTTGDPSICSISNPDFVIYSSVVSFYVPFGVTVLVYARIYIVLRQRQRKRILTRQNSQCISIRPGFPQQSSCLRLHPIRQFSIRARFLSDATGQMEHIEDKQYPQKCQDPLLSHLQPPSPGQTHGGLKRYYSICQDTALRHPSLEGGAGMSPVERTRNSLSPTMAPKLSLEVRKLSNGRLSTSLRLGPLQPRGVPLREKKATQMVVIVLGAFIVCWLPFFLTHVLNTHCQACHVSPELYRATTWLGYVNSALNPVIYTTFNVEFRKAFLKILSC

The molecule `CNc1cc(OC)c(C(=O)N[C@H]2CCN(Cc3ccccc3)[C@H]2C)cc1Cl` [NEMONAPRIDE] gave a Ki of 0.16 nM.

For the origin of these results see ChEMBL document CHEMBL1129789, “Dopamine D3 and D4 receptor antagonists: synthesis and structure--activity relationships of (S)-(+)-N-(1-Benzyl-3-pyrrolidinyl)-5-chloro-4- [(cyclopropylcarbonyl) amino]-2-methoxybenzamide (YM-43611) and related compounds” (J Med Chem, 1996).
